For one compound, EC50 results are on record in article PMC8691691 (ACS Chemical Neuroscience, 2021).

One may read the EC50 as the concentration giving half of the maximal effect. Read a high EC50 as a less potent agent.

Molecules are shown by their SMILES. Where a chain is given by its changes, count along the chain named.

One assay deals with T1, GlyT2 I285F mutant (Rattus norvegicus, UniProt P58295, I285F).
T1 construct: expressed in transfected cells; host or cells: COS7
T1 sequence (P58295 1-799 I285F): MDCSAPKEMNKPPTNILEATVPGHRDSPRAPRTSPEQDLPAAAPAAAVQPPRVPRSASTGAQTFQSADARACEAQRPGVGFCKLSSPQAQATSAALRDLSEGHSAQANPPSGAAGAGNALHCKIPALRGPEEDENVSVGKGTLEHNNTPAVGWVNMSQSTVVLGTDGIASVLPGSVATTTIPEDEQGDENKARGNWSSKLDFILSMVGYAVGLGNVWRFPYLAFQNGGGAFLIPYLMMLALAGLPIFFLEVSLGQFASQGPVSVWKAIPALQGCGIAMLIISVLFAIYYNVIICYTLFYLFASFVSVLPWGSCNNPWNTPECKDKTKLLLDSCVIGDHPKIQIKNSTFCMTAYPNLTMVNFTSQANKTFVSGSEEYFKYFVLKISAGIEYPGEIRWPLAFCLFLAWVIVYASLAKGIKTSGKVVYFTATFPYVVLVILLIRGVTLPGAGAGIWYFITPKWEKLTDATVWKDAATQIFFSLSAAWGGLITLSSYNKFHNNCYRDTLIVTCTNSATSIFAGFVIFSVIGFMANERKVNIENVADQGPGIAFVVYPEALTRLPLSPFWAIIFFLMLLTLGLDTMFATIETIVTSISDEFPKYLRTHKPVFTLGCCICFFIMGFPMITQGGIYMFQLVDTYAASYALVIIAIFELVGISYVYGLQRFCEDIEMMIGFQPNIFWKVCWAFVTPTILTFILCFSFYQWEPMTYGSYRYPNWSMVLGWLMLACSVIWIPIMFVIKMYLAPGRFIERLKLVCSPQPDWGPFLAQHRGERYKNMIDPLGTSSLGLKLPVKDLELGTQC
The experiment in a line: [3H]glycine transport by GlyT2 mutant in COS7 cells. It counts as cell-based.

Another assay concerns the target T2, GlyT2 A210C mutant (Rattus norvegicus, UniProt P58295, A210C).
T2 construct: expressed in transfected cells; host or cells: COS7
T2 sequence (P58295 1-799 A210C): T1 sequence (P58295 1-799 I285F) with A210C, F285I
The description is as above. It counts as cell-based.

As to `NCC(=O)O` [Gly, glycine], the EC50 was found to be 603 ± 86 µM at GlyT2 I285F mutant and 336 ± 10 µM at GlyT2 A210C mutant.
